Assay results as given in patent publication US20250248993A1, “CAMPTOTHECIN DERIVATIVES THAT BIND TO DDX5 PROTEIN AND PRODRUGS THEREOF” (priority 2022, published 2025).

Tested on: JIMT-1 breast cancer cells
Assay: In vivo efficacy, JIMT-1 xenograft mouse model
Design: species or system BALB/c nude mice

## Enhertu [reference compound]
3 mg/kg i.v. twice (day 0, day 6), 6 + 0 days
  tumor volume: 175.58 mm^3
3 mg/kg i.v. twice (day 0, day 6), 6 + 3 days
  tumor volume: 295.80 mm^3
3 mg/kg i.v. twice (day 0, day 6), 6 + 7 days
  tumor volume: 325.74 mm^3
3 mg/kg i.v. twice (day 0, day 6), 6 + 10 days
  tumor volume: 354.87 mm^3
3 mg/kg i.v. twice (day 0, day 6), 6 + 14 days
  tumor volume: 405.93 mm^3
10 mg/kg i.v. twice (day 0, day 6), 6 + 0 days
  tumor volume: 175.87 mm^3
10 mg/kg i.v. twice (day 0, day 6), 6 + 3 days
  tumor volume: 270.11 mm^3
10 mg/kg i.v. twice (day 0, day 6), 6 + 7 days
  tumor volume: 254.45 mm^3
10 mg/kg i.v. twice (day 0, day 6), 6 + 10 days
  tumor volume: 249.13 mm^3
10 mg/kg i.v. twice (day 0, day 6), 6 + 14 days
  tumor volume: 249.18 mm^3
